Values of other authors as cited in article PMC8341375 (RSC Chemical Biology, 2021).

Chains of the proteins cited; added tags and fusions are not shown. Lines headed by an entry give the natural chain unless they say otherwise; changes in a name come on top.
UniProt P11511: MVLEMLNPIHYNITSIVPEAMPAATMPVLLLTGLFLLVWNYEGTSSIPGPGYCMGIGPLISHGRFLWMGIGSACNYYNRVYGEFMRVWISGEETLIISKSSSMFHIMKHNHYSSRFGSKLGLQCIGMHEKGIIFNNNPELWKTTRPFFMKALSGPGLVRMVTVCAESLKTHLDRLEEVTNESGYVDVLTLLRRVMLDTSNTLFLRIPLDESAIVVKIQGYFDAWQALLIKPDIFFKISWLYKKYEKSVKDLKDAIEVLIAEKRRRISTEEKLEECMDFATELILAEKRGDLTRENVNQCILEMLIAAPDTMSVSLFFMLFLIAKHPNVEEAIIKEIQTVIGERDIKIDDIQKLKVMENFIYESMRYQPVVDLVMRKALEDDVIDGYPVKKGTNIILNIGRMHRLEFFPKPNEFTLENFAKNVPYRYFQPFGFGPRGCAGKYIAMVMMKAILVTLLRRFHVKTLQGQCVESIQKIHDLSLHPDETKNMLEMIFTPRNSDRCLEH

Target: aromatase (CYP19) (Homo sapiens, UniProt P11511)
Conditions: competitive AI; cited from earlier work

Compound: CC/C(=C(\c1ccc(O)cc1)c1ccc(OCCN)cc1)c1ccccc1 [norendoxifen]
- Ki: 35 nM
